From US8030354B2, “Substituted biphenyl GPR40 modulators” (Amgen Inc., priority 2007, dated 2011)

Amino acid sequences for entries named in this document (tags omitted).
UniProt O14842, whole entry: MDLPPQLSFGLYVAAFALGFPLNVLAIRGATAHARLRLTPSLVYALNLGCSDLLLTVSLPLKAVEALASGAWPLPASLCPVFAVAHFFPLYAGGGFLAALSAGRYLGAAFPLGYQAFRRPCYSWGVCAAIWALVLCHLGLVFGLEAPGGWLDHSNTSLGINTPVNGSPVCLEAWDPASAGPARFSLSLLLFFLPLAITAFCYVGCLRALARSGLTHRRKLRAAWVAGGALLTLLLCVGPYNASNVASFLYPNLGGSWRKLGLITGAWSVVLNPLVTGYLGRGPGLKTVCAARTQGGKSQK

Biological target: GPR40 (Homo sapiens, UniProt O14842)
Test: Cell-based aequorin assay (CHO cells stably expressing GPR40 and aequorin)
Conditions: read-out: Aequorin EC50; activation of human GPR40, CHO cells, 0.01% HSA

## COc1ccc(F)c(-c2ccc(COc3cccc(C(CC(=O)O)C4CC4)c3)cc2C2CCCC2C)c1 (single isomer, unassigned)
  EC50: 0.1 to 1 µM
